One compound from PMC12022980, “Rational Design of PROTAC Linkers Featuring Ferrocene as a Molecular Hinge to Enable Dynamic Conformational Changes” (Journal of the American Chemical Society, 2025) can be followed below.

By UniProt entry, the sequences of proteins in these tests, tags left out.
UniProt Q15059, whole entry: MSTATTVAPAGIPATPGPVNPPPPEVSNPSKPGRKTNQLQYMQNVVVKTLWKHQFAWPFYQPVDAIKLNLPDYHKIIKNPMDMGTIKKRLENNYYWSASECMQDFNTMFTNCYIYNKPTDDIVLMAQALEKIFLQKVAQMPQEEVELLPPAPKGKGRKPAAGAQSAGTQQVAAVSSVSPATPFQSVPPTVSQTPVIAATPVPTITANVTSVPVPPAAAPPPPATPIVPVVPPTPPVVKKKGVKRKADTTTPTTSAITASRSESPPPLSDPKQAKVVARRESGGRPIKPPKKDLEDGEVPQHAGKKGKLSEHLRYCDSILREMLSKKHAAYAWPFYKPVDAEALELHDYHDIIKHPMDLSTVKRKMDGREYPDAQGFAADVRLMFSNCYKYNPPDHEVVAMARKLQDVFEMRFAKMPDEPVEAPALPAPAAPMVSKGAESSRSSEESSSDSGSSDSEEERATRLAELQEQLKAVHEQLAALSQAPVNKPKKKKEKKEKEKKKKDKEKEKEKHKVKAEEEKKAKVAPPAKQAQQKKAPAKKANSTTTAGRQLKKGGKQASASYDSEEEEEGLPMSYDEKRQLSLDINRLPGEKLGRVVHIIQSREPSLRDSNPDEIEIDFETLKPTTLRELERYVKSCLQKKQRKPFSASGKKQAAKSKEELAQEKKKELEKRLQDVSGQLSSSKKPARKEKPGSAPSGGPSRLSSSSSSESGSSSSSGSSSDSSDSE
UniProt P25440, whole entry: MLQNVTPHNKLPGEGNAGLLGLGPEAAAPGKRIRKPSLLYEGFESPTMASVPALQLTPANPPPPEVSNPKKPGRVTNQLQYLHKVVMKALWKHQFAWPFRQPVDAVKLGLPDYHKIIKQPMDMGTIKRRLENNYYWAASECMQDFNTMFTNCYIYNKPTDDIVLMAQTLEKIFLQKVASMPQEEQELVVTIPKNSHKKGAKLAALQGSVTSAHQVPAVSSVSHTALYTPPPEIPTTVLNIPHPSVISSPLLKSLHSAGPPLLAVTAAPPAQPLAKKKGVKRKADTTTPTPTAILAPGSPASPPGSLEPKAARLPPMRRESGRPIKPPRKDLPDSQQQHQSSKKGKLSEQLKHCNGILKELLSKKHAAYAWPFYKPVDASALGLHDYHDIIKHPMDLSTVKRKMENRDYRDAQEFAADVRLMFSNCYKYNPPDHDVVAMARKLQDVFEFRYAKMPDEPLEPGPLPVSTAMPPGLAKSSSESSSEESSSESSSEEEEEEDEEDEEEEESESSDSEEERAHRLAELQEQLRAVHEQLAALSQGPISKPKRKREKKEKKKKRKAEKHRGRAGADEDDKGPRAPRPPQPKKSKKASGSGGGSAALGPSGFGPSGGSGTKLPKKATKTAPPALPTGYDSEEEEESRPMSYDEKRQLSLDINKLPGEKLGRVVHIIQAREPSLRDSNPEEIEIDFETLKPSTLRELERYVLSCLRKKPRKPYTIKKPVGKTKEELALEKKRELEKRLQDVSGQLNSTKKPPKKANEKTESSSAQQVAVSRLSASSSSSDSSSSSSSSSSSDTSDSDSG

One data set deals with HiBiT-BRD3 (Homo sapiens, UniProt Q15059). Particulars: other cell line.
Another data set addresses T1, HiBiT-tagged BRD2 (Homo sapiens, UniProt P25440).
T1 construct: host or cells: HEK293 cell line expressing HiBiT-tagged BRD2
Nature of the data set: Lytic HiBiT-BET degradation assay. Particulars: HEK293, read-out: Dmax at 1 μM BRD2. The class given is cell-based. On the procedure: (§1) room temperature and protected from light. Thereafter, the membranes were washed with TBS-T three times for 10 min, and protein bands were acquired using a ChemiDoc MP imaging system (Bio-Rad). Band quantification was performed using Image Lab software and reported as ratio of each protein band relative to […]
(§2) Peak elution was monitored using ultraviolet absorbance at 280 nm.
(§3) Each treatment was conducted in biological duplicates with technical duplicates for each. […]
(§4) manufacturer's instructions, was added to each well. […]
(§5) to ensure complete cell lysis. Luminescence was recorded using the GloMax® Ultrasensitive Luminescence Protocol for 96-well plates.

Another data set concerns the target T2, HiBiT-tagged BRD3 (Homo sapiens, UniProt Q15059).
T2 construct: host or cells: HEK293 cell line expressing HiBiT-tagged BRD3
Nature of the data set: Lytic HiBiT-BET degradation assay. The data set is classed as cell-based. The following applies: HEK293, read-out: Dmax at 1 μM BRD3. As to the method: as §1, §2, §3, §4, §5
On the technique in general: With HiBiT, luminescence reflects the tagged protein that the partner subunit can reach.

For a further data set, the target named is T3, HiBiT-tagged BRD4 (Homo sapiens, UniProt O60885).
T3 construct: host or cells: HEK293 cell line expressing HiBiT-tagged BRD4
As to the kind of experiment: Lytic HiBiT-BET degradation assay. Particulars: HEK293, read-out: Dmax at 1 μM BRD4. The data set is classed as cell-based. As to the method:
as §1, §2, §3, §4, §5

As a reminder, the Dmax is the largest share of the target that was removed. Take `Cc1ncsc1-c1ccc(CNC(=O)C2CC(O)CN2C(=O)C(NC(=O)COCCOCCOCCNC(=O)CC2N=C(c3ccc(Cl)cc3)c3c(sc(C)c3C)-n3c(C)nnc32)C(C)(C)C)cc1` (stereo not shown) [MZ1]: at HiBiT-BRD3, the “t1/2 BRD3” value stood at 52.8 min. The Dmax at 1 µM on HiBiT-tagged BRD2 was determined as 98%; at HiBiT-tagged BRD3, 94%; at HiBiT-tagged BRD4, 95%.
